{"source": "PubChem BioAssay AID504444", "about": "(National Center for Advancing Translational Sciences (NCATS), 2011)", "note": "This is a selection; strong and weak results do not stand in their true shares. Results filed as inconclusive are left out. Entries that show only a call come without a potency. Active and inactive are the calls of the source. The call rests on the fitted dose curve; in most records, active means well fitted inhibition curve with a large enough effect; inconclusive means small, poorly fitted or top-dose-only effect, or effect the other way; inactive means flat fitted curve, though single readings scatter. Potency means the concentration at half of the fitted maximal effect.", "data": [{"assay": "Nrf2 qHTS screen for inhibitors; further: nearly all actives have a fitted effect of over 60% in size", "conditions": "A549 ARE-Fluc reporter, luciferase luminescence, 18-24 h; series mostly up to 46 µM", "values": [{"smiles": "CCN(CC)CCCOC(=O)C(O)(c1ccccc1)c1ccccc1", "Potency": "inactive"}, {"smiles": "COc1ccccc1OP(C)(=O)Nc1ccc(C)cc1", "note": "(stereo unspecified)", "Potency": "inactive"}, {"smiles": "Cc1ccc(NP(C)(=O)Oc2ccccc2)c(C)c1", "note": "(stereo unspecified)", "Potency": "inactive"}, {"smiles": "CCOC(=O)c1ccc(NP(C)(=O)Oc2ccccc2)cc1", "note": "(stereo unspecified)", "Potency": "inactive"}, {"smiles": "Cc1cc(C)cc(OP(C)(N)=O)c1", "note": "(stereo unspecified)", "Potency": "inactive"}, {"smiles": "COc1ccccc1OP(C)(=O)Nc1cc(Cl)ccc1C", "note": "(stereo unspecified)", "Potency": "inactive"}, {"smiles": "COc1ccc(OP(C)(=O)Nc2cccc(F)c2)cc1", "note": "(stereo unspecified)", "Potency": "inactive"}, {"smiles": "O=[N+]([O-])c1cc([N+](=O)[O-])c(Nc2cccnc2)c([N+](=O)[O-])c1", "Potency": "inactive"}, {"smiles": "O=[N+]([O-])c1ccc2c(c1)C=Nc1ccccc1O2", "Potency": "inactive"}, {"smiles": "Cc1cccc(C)c1OP(C)(N)=O", "note": "(stereo unspecified)", "Potency": "inactive"}, {"smiles": "CP(=O)(Nc1ccccc1Br)Oc1ccccc1", "note": "(stereo unspecified)", "Potency": "inactive"}, {"smiles": "COc1ccccc1OP(C)(=O)Nc1ccccc1", "note": "(stereo unspecified)", "Potency": "inactive"}, {"smiles": "O=[N+]([O-])c1cc([N+](=O)[O-])c(O)c([N+](=O)[O-])c1.c1ccc(Oc2ccncc2)cc1", "Potency": "inactive"}, {"smiles": "CCOC(=O)c1ccc(NP(C)(=O)Oc2ccc(OC)cc2)cc1", "note": "(stereo unspecified)", "Potency": "inactive"}, {"smiles": "CP(=O)(Nc1ccccn1)Oc1ccc(Cl)cc1", "note": "(stereo unspecified)", "Potency": "inactive"}, {"smiles": "Cc1cccc(C)c1OP(C)(=O)Nc1ccc(SC(F)(F)F)cc1", "note": "(stereo unspecified)", "Potency": "inactive"}, {"smiles": "CP(=O)(Oc1ccccc1)OC(c1ccccc1)C(F)(F)F", "note": "(stereo unspecified)", "Potency": "inactive"}, {"smiles": "CP(=O)(NC(=O)Nc1ccccc1)Oc1ccccc1", "note": "(stereo unspecified)", "Potency": "inactive"}, {"smiles": "Cc1nc2ccc3ccccc3c2s1.O=[N+]([O-])c1cc([N+](=O)[O-])c(O)c([N+](=O)[O-])c1", "Potency": "inactive"}, {"smiles": "O=[N+]([O-])c1cc([N+](=O)[O-])c(-n2nnc3ccccc32)c([N+](=O)[O-])c1", "Potency": "inactive"}, {"smiles": "CN1CCCCC1COC(=O)C1(O)c2ccccc2CCc2ccccc21", "note": "(stereo unspecified)", "Potency": "inactive"}, {"smiles": "COc1ccccc1OP(C)(=O)Nc1c(C)cccc1C", "note": "(stereo unspecified)", "Potency": "inactive"}, {"smiles": "CC1=C2N=C(C=C3N=C(C(C)=C4[N-][C@@](C)([C@@H]5N=C1[C@](C)(CCC(=O)NC[C@@H](C)OP(=O)([O-])O[C@H]1[C@@H](O)[C@@H](n6cnc7cc(C)c(C)cc76)O[C@@H]1CO)[C@H]5CC(N)=O)[C@@](C)(CC(N)=O)[C@@H]4CCC(N)=O)[C@@](C)(CC(N)=O)[C@@H]3CCC(N)=O)C(C)(C)[C@@H]2CCC(N)=O.[C-]#N.[Co+3]", "Potency": "inactive"}, {"smiles": "O=[N+]([O-])c1cc([N+](=O)[O-])c(Nc2nnnn2CCO)c([N+](=O)[O-])c1", "Potency": "inactive"}, {"smiles": "CC1CCOC(=O)C=CC=CC(=O)OC2CC3OC4C5OC5(C)CCC4(COC(=O)C1O)C2(C)C31CO1", "note": "(stereo unspecified)", "Potency": "active: 16.4 nM"}, {"smiles": "CC1=NCCc2c1[nH]c1ccccc21.O=[N+]([O-])c1cc([N+](=O)[O-])c(O)c([N+](=O)[O-])c1", "Potency": "inactive"}]}]}
